Experiments:
glucocorticoid receptor = glucocorticoid receptor (Homo sapiens, UniProt P04150); assay: Glucocorticoid Receptor Binding Assay ([3H]-dexamethasone, A549 cell extract); conditions: read-out: GR Ki, [3H]-dexamethasone binding
human MR = human MR (Homo sapiens, UniProt P08235); assay: Mineralocorticoid Receptor Binding Assay ([3H]-aldosterone); conditions: read-out: MR Ki; [3H]-aldosterone binding, human MR expressed in Sf9 cells

Protein sequences, listed by entry. Tags and fused reporters are not part of them.
UniProt P04150, whole entry: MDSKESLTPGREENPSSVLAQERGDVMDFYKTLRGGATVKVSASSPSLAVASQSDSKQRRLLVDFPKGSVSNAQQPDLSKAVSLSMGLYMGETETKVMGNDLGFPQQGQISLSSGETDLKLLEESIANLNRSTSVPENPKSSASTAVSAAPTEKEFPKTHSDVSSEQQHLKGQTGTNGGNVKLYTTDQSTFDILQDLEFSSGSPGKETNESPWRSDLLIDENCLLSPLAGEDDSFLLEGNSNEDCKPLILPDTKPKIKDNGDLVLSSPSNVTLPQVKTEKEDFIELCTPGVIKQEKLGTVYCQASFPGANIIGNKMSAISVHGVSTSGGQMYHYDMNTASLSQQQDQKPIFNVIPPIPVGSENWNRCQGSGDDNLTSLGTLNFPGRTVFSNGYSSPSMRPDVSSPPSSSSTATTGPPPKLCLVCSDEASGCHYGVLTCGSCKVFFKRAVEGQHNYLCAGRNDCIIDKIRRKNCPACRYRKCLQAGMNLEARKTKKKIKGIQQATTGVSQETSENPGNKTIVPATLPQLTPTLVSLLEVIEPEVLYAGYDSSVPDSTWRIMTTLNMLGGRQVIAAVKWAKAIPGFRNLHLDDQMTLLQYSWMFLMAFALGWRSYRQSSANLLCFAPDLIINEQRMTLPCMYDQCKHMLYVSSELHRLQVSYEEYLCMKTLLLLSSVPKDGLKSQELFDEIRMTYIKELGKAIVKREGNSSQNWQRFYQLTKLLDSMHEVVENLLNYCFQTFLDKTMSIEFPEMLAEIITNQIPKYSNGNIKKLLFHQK
UniProt P08235, whole entry: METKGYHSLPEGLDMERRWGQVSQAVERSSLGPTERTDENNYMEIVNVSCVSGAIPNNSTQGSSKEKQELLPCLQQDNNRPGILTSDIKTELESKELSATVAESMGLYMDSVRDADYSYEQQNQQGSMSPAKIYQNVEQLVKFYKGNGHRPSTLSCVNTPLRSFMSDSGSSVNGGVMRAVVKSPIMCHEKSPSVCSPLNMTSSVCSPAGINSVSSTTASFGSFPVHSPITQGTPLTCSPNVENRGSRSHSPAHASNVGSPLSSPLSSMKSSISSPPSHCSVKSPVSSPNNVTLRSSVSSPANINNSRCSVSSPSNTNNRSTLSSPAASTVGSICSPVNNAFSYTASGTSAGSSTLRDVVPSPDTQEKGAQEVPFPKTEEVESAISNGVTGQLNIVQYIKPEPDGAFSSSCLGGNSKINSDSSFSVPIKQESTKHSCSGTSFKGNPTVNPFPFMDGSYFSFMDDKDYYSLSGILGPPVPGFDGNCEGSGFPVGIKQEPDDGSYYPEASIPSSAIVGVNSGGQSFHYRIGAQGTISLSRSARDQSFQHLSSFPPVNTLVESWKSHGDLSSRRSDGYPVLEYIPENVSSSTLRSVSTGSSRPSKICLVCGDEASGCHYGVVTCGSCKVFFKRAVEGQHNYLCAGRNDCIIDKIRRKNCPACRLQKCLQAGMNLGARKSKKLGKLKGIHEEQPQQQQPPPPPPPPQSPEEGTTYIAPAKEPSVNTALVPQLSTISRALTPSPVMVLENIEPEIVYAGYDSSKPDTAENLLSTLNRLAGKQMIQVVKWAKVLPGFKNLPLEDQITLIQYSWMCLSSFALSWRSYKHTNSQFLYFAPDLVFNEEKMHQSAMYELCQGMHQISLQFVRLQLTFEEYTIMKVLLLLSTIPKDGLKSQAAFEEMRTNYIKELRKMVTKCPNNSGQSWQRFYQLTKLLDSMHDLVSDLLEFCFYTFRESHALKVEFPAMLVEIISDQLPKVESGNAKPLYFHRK

Q: For [O-][N+]1=Nc2cc(C=C3c4ccccc4CCc4ccccc43)ccc2C1, which Ki (glucocorticoid receptor) is on record?
A: Its Ki is under 10 µM.

Q: And the Ki (human MR)?
A: The Ki was under 0.5 µM.
